The text below walks through data of PMC4373488.

Chains of the proteins cited; added tags and fusions are not shown.
UniProt Q8CGU6, whole entry, looked up: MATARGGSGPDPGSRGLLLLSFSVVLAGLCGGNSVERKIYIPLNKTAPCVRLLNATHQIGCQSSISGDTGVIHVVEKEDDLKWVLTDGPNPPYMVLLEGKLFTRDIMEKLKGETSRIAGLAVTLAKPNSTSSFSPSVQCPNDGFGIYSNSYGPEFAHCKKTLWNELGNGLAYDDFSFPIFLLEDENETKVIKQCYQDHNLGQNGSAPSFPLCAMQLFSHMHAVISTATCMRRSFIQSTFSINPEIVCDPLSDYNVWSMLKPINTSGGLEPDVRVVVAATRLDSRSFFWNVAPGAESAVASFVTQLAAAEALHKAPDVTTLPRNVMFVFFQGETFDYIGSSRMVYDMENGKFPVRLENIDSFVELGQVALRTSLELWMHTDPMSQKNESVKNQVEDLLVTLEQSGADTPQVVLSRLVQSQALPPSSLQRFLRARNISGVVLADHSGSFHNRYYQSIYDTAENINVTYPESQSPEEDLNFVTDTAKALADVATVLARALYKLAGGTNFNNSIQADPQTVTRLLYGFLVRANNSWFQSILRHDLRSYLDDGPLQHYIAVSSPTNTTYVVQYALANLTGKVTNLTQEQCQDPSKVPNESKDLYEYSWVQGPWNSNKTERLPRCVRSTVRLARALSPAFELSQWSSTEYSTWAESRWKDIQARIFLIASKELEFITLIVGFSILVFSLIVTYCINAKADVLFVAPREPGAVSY

In the test the target is γ-secretase complex (rat brain) (rat (endogenous in rat brain)) (UniProt Q8CGU6). The test can be described thus: pull-down.

A value given as a limit tells only on which side of the number the result lay.

B1: TMP21 (rat) (natural protein)
chain: ISFHLPVNSRKCLREEIHKDLLVTGAYEITDQSGGAGGLRTHLKITDSAGHILYAKEDATKGKFAFTTEDYDMFEVCFESKGTGRIPDQLVILDMKHGVEAKNYEEIAKVEKLKPLEVELRRLEDLSESIVNDFAYMKKREEEMRDTNESTNTRVLYFSIFSMFCLIGLATWQVFYLRRFFKAKKLIE
B1: the percent of the total TMP21 associated with γ-secretase is under 0.2%.
